Results reported in paper doi:10.1101/2024.12.05.627101v1 (biorxiv, 2024).
Where two headings read alike, the source gives them in different places.

Amino acid sequences for entries named in this document (tags omitted). Residues count along the entry.
UniProt P41594, 21-1180 isoform P41594-2: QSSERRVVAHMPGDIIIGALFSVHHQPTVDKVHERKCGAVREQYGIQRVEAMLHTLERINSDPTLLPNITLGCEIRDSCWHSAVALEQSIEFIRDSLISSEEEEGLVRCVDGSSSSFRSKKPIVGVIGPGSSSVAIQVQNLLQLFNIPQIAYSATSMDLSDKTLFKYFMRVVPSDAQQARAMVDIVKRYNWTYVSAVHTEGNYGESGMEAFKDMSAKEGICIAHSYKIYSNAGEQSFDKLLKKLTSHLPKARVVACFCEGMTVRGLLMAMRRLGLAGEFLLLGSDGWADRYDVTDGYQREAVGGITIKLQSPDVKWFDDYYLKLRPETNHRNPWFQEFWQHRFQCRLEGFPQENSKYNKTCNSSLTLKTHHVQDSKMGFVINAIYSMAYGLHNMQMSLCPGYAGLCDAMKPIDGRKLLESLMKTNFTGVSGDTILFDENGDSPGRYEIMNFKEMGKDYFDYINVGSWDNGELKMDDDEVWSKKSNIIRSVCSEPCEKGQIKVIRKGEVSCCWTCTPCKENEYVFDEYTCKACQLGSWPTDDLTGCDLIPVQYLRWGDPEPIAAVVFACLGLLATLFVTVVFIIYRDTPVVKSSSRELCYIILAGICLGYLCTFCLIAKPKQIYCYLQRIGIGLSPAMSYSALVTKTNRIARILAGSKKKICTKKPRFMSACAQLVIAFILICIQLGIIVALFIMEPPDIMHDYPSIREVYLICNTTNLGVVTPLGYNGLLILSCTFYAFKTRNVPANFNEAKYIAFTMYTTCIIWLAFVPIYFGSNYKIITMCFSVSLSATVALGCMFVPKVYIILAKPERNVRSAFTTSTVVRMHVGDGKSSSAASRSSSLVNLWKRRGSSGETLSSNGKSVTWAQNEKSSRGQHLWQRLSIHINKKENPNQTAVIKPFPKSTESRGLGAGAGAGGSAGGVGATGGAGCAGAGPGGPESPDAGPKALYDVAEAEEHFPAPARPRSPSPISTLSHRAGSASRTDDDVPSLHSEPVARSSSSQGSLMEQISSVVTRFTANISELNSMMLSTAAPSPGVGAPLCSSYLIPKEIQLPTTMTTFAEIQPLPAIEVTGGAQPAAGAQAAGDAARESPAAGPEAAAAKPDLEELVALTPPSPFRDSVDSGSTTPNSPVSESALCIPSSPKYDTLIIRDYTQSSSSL

Experiments:
human mGlu5 (hmGlu5) [1] = biological target: T1, human mGlu5 (hmGlu5) (Homo sapiens, UniProt P41594); assay: cell-based; set-up: species or system HEK293A
human mGlu5 (hmGlu5) [2] = biological target: T1, human mGlu5 (hmGlu5); assay: cell-based; set-up: species or system HEK293A; remark: listed apart in the source
human mGlu5 (hmGlu5) [3] = biological target: T1, human mGlu5 (hmGlu5); assay: cell-based; set-up: species or system HEK293A; remark: listed apart in the source
human mGlu5 (hmGlu5) [4] = biological target: T1, human mGlu5 (hmGlu5); assay: whole-cell [3H]methoxy-PEPy inhibition binding; format: cell-based
human mGlu5 (hmGlu5) [5] = biological target: T1, human mGlu5 (hmGlu5); assay: IP1 accumulation; format: cell-based
human mGlu5 (hmGlu5) [6] = biological target: T1, human mGlu5 (hmGlu5); assay: whole-cell [3H]methoxy-PEPy inhibition binding; format: cell-based; remark: listed apart in the source
human mGlu5 (hmGlu5) [7] = biological target: T1, human mGlu5 (hmGlu5); assay: cell-based; set-up: species or system HEK293A; remark: listed apart in the source
human mGlu5 (hmGlu5) [8] = biological target: T1, human mGlu5 (hmGlu5); assay: IP1 accumulation; format: cell-based; remark: listed apart in the source

Compound | Kb (human mGlu5 (hmGlu5) [1]) | Kb (human mGlu5 (hmGlu5) [2]) | Kb (human mGlu5 (hmGlu5) [3]) | Kd (human mGlu5 (hmGlu5) [4]) | EC50 (human mGlu5 (hmGlu5) [5]) | Ki (human mGlu5 (hmGlu5) [6]) | Ki (human mGlu5 (hmGlu5) [7]) | IC50 (human mGlu5 (hmGlu5) [8])
N#Cc1cccc(C(=O)Nc2cc(-c3ccccc3)nn2-c2ccccc2)c1 [CDPPB, 3-cyano-N-(1,3-diphenyl-1H-pyrazol-5-yl) benzamide] | 115 nM | 407 nM | 550 nM | 245 nM | 214 nM |  |  | 
Cc1cccc(C#Cc2ccccc2)n1 [MPEP, 2-methyl-6-(phenylethynyl)pyridine] | 2.69 nM | 0.692 nM |  |  |  | 3.72 nM | 331 nM | 8.91 nM
